Data taken from patent publication US7989632B2, “Crystalline forms of solvated ilaprazole” (Il Yang Pharmaceutical Company, Ltd., priority 2006, dated 2011).

Test: Dynamic Vapor Sorption/Desorption (DVS) isotherm
Type: physicochemical
Procedure: Dynamic Vapor Sorption/Desorption (DVS): Data were collected on a VTI SGA-100 moisture balance system. For sorption isotherms, a sorption range of 5 to 95% relative humidity (RH) and a desorption range of 95 to 5% RH in 10% RH increments were used for analysis. The samples were not dried prior to analysis. Equilibrium criteria used for analysis were less than 0.0100% weight change in 5 minutes with a maximum equilibration time of 3 hours if the weight criterion was not met. Data were not corrected for the initial moisture content of the samples.

crystalline methanol/racemic ilaprazole solvate [Form G]
DVS weight loss at 5% RH (at 5% RH, samples not dried prior to analysis): ~4.6% | DVS weight loss from 95 to 5% RH (desorption, 95 to 5% RH): ~3.9% | DVS weight gain from 5 to 95% RH (sorption, 5 to 95% RH): ~3.9%
